Among the data in patent publication US20220281918A1, “PBP BINDING BICYCLIC PEPTIDE LIGANDS” (BicycleTx Limited, priority 2019, published 2022) are Kd and Ki values, retold here.

The target of one assay is T1, E. coli PBP1b (E. coli, UniProt P02919 88-844, limits assumed).
T1 sequence (looked up): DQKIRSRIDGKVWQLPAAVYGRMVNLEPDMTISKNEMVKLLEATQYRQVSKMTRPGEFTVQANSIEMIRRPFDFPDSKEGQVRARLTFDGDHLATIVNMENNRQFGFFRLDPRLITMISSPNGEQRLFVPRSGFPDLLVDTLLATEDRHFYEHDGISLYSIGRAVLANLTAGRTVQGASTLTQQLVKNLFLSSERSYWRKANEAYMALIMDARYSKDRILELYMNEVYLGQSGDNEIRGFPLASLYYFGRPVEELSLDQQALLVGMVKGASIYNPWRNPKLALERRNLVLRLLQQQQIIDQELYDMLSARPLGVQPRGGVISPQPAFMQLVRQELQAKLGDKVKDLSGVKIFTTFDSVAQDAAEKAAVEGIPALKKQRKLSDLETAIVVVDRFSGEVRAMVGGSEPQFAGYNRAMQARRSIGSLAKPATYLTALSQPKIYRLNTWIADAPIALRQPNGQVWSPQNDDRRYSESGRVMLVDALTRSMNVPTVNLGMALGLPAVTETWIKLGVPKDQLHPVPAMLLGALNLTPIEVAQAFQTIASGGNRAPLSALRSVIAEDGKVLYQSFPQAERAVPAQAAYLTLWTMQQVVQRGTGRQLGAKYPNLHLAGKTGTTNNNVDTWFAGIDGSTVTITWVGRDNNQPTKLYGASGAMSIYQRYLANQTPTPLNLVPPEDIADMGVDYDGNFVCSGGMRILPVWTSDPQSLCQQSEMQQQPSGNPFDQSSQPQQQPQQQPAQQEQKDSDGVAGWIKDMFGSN
Kind of assay: fluorescence polarisation direct binding; fluorescein-labelled peptide, PBP titrated.

Assay [1] addresses T2, S. pneumoniae PBP1a (S. pneumoniae, UniProt Q04707 37-719, limits assumed).
T2 sequence (looked up): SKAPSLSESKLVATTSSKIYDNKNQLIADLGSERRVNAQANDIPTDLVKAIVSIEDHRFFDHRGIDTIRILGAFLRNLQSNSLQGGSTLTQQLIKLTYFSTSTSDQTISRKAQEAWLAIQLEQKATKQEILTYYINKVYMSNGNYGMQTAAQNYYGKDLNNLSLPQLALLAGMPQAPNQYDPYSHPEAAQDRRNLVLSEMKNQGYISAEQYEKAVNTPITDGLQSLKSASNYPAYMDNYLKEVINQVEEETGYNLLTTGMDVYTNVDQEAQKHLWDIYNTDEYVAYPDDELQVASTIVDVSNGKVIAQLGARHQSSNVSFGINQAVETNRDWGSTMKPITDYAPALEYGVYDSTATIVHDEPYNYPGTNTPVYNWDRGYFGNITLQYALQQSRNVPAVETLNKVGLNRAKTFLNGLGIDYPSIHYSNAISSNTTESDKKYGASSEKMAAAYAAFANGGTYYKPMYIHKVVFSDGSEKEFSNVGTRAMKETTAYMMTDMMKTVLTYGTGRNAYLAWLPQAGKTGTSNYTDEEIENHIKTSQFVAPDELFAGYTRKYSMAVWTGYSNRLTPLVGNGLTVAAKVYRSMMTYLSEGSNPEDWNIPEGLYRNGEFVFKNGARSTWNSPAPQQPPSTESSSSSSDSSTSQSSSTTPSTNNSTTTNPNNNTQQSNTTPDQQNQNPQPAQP
Described as above.

Assay [2] addresses T2, S. pneumoniae PBP1a. Kind of assay: fluorescence polarisation competition; unlabelled peptide against the competitor fluorescein-labelled BCY9378 tracer, PBP at 800 nM.

B1: BCY14619 with fluorescein appended to the C-terminus with a Sar6-Lysine linker (peptide)
peptide: ACWGSLRCPITAHCA
modifications: Ci, Cii and Ciii cyclised with TATA scaffold; fluorescein appended to the C-terminus with a Sar6-Lysine linker
notes: Bicyclic peptide
Take B1: the dissociation constant (Kd) with E. coli PBP1b amounted to 49 nM.

B2: BCY14621 with fluorescein appended to the C-terminus with a Sar6-Lysine linker (peptide)
peptide: ACWGSLRCPIKWDCA
modifications: Ci, Cii and Ciii cyclised with TATA scaffold; fluorescein appended to the C-terminus with a Sar6-Lysine linker
notes: Bicyclic peptide
B2: binding in the assay with E. coli PBP1b was characterised by a dissociation constant (Kd) of 239 nM.

B3: BCY9377 with fluorescein appended to the C-terminus with a Sar6-Lysine linker (peptide)
peptide: ACRFSSCPPYHVCA
modifications: Ci, Cii and Ciii cyclised with TATA scaffold; fluorescein appended to the C-terminus with a Sar6-Lysine linker
notes: Bicyclic peptide
The molecule B3 returned a Kd with S. pneumoniae PBP1a [1] of 310 nM.

B4: BCY9381 with fluorescein appended to the C-terminus with a Sar6-Lysine linker (peptide)
peptide: ACHPRHQEGYCMPCA
modifications: Ci, Cii and Ciii cyclised with TATA scaffold; fluorescein appended to the C-terminus with a Sar6-Lysine linker
notes: Bicyclic peptide
In the assay with S. pneumoniae PBP1a [1], B4 displayed a dissociation constant Kd of 3950 nM.

B5: BCY14641 with fluorescein appended to the C-terminus with a Sar6-Lysine linker (peptide)
peptide: ACWGSKSCPITWKCA
modifications: Ci, Cii and Ciii cyclised with TATA scaffold; fluorescein appended to the C-terminus with a Sar6-Lysine linker
notes: Bicyclic peptide
B5: the dissociation constant (Kd) with E. coli PBP1b was determined as 163 nM.
In the assay with S. pneumoniae PBP1a [2], ACVFTTCPPYTVCA (Ci, Cii and Ciii cyclised with TATA scaffold, Bicyclic peptide) [BCY10022 (unlabelled, unmodified peptide)] displayed a Ki of 1170 nM.

B6: BCY9237 with fluorescein appended to the C-terminus with a Sar6-Lysine linker (peptide)
peptide: ACPNACWTVHYSGYQCA
modifications: Ci, Cii and Ciii cyclised with TATA scaffold; fluorescein appended to the C-terminus with a Sar6-Lysine linker
notes: Bicyclic peptide
On to B6, for which, in the assay with E. coli PBP1b, binding was put at a Kd of 360 nM.

B7: BCY14618 with fluorescein appended to the C-terminus with a Sar6-Lysine linker (peptide)
peptide: ACWGSLRCPIHYSCA
modifications: Ci, Cii and Ciii cyclised with TATA scaffold; fluorescein appended to the C-terminus with a Sar6-Lysine linker
notes: Bicyclic peptide
As for B7, the Kd with E. coli PBP1b came out at 142 nM.
ACRYTSCPPYTVCA (Ci, Cii and Ciii cyclised with TATA scaffold, Bicyclic peptide) [BCY10026 (unlabelled, unmodified peptide)] gave an inhibition constant Ki with S. pneumoniae PBP1a [2] of 555 nM.

B8: BCY14627 with fluorescein appended to the C-terminus with a Sar6-Lysine linker (peptide)
peptide: ACWGSKACPITWHCA
modifications: Ci, Cii and Ciii cyclised with TATA scaffold; fluorescein appended to the C-terminus with a Sar6-Lysine linker
notes: Bicyclic peptide
In the case of B8, the equilibrium dissociation constant (Kd) with E. coli PBP1b turned out to be 158 nM.

B9: BCY9389 with fluorescein appended to the C-terminus with a Sar6-Lysine linker (peptide)
peptide: ACNPRCHPVYTSFFCA
modifications: Ci, Cii and Ciii cyclised with TATA scaffold; fluorescein appended to the C-terminus with a Sar6-Lysine linker
notes: Bicyclic peptide
Consider B9, for which binding with S. pneumoniae PBP1a [1] was put at a Kd of 790 nM.

B10: BCY9233 with fluorescein appended to the C-terminus with a Sar6-Lysine linker (peptide)
peptide: ACSATWGSRSCPVKFCA
modifications: Ci, Cii and Ciii cyclised with TATA scaffold; fluorescein appended to the C-terminus with a Sar6-Lysine linker
notes: Bicyclic peptide
For B10, the Kd with E. coli PBP1b was 370 nM.

B11: BCY9387 with fluorescein appended to the C-terminus with a Sar6-Lysine linker (peptide)
peptide: ACYTSCPEHHVFACA
modifications: Ci, Cii and Ciii cyclised with TATA scaffold; fluorescein appended to the C-terminus with a Sar6-Lysine linker
notes: Bicyclic peptide
In turn, B11 gave a Kd in the assay with S. pneumoniae PBP1a [1] of 3140 nM.

B12: BCY9238 with fluorescein appended to the C-terminus with a Sar6-Lysine linker (peptide)
peptide: ACHEFSLDCILFGTSCA
modifications: Ci, Cii and Ciii cyclised with TATA scaffold; fluorescein appended to the C-terminus with a Sar6-Lysine linker
notes: Bicyclic peptide
In the assay with E. coli PBP1b, B12 yielded a Kd of 1350 nM.

B13: BCY9384 with fluorescein appended to the C-terminus with a Sar6-Lysine linker (peptide)
peptide: ACDIYRECHYTSWSVCA
modifications: Ci, Cii and Ciii cyclised with TATA scaffold; fluorescein appended to the C-terminus with a Sar6-Lysine linker
notes: Bicyclic peptide
The molecule B13 showed a dissociation constant Kd in the assay with S. pneumoniae PBP1a [1] of 1320 nM.

B14: BCY14629 with fluorescein appended to the C-terminus with a Sar6-Lysine linker (peptide)
peptide: ACWGSRQCPISWTCA
modifications: Ci, Cii and Ciii cyclised with TATA scaffold; fluorescein appended to the C-terminus with a Sar6-Lysine linker
notes: Bicyclic peptide
Molecule B14 showed a Kd with E. coli PBP1b of 59 nM.

B15: BCY9391 with fluorescein appended to the C-terminus with a Sar6-Lysine linker (peptide)
peptide: ACGAPCRPHYVPWFCA
modifications: Ci, Cii and Ciii cyclised with TATA scaffold; fluorescein appended to the C-terminus with a Sar6-Lysine linker
notes: Bicyclic peptide
In the case of B15, the dissociation constant Kd with S. pneumoniae PBP1a [1] was found to be 450 nM.
In turn, ACTYTTCPPFTICA (Ci, Cii and Ciii cyclised with TATA scaffold, Bicyclic peptide) [BCY10020 (unlabelled, unmodified peptide)] showed an inhibition constant (Ki) in the assay with S. pneumoniae PBP1a [2] of 602 nM.

B16: BCY14381 with fluorescein appended to the C-terminus with a Sar6-Lysine linker (peptide)
peptide: ACWGTSACPVTHECA
modifications: Ci, Cii and Ciii cyclised with TATA scaffold; fluorescein appended to the C-terminus with a Sar6-Lysine linker
notes: Bicyclic peptide
Consider B16, for which the Kd in the assay with E. coli PBP1b amounted to 1390 nM.
